This experiment deals with T1, human C-KIT (elabscience, PKSH030939) (human, UniProt P10721-2 26-516, limits assumed).
T1 construct: Bought recombinant protein; also called recombinant C-KIT protein (cat #PKSH030939); C-KIT protein used as an antigen
Nature of the experiment: SPR (Reichert SR7500DC), C-KIT fixed on a PEG chip, 2G4 antibody flowed by concentration. The procedure: In order to confirm the C-KIT binding ability of the 2G4 antibody, SPR (Surface Plasmon Resonance) was performed. Using SR7500DC (Reichert, USA), 20 μg of human C-KIT (elabscience, PKSH030939) used for antibody preparation. 20 μg of mouse C-KIT (SB, Lot #LC05DE2304), and rat C-KIT (SB, Lot #LC06SE1787) 20 μg was fixed on a PEG (Reichert, USA) chip. Thereafter, after flowing 2G4 antibody by concentration, the KD value, which is the affinity for C-KIT, was analyzed using the Scrubber2 program. The KD value is obtained by dividing kd by ka, and the lower the value means the greater the binding ability to the target.

The chains behind the UniProt entries cited, without tags or fusion partners. A line that says so, or that is headed by a name, gives the form on record, which may keep a tag or linker.
UniProt P10721, other isoform, or with tags, fused parts or gaps limits assumed: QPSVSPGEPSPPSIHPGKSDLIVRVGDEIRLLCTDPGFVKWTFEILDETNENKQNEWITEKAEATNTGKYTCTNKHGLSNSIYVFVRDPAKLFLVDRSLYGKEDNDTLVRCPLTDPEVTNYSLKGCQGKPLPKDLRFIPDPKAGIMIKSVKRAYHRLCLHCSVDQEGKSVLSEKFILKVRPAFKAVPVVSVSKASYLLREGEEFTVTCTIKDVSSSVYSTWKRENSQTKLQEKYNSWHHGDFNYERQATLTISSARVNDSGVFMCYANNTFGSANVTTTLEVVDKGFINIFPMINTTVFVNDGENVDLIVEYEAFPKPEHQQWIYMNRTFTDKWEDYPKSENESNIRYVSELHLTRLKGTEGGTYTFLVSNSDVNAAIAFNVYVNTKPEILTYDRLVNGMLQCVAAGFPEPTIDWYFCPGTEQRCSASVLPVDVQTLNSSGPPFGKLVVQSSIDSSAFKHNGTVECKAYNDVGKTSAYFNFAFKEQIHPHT

B1: 2G4 antibody (antibody, V domains shown)
VH: QVQLVESGGGVVQPGRSLRLSCAASGFTFSRYGMHWVRQAPGKGLEWVAVIWYDGTNKDYTDSVRGRFTISRDNSKNTLYLQMNSLRAEDTAVYYCAREDWAEAFDMWGQGTTVTVSS
VL: not shown
The molecule B1 registered a dissociation constant (Kd) of approximately 2.82 pM.

Usually Kd stands for the concentration at which binding is half-saturated. Lower therefore signals higher affinity.
